Reference: PubChem BioAssay AID701 (PCMD, 2007)
The entries are a selection whose mix differs from that of the whole data set. Activity calls are given as the source filed them. Cut-off read from the data, not from the text of the source: active = inhibition above about 30%; inactive = the rest.

The chains behind the UniProt entries cited, without tags or fusion partners. Residues count along the entry.
UniProt P00748, 20-372 limits assumed: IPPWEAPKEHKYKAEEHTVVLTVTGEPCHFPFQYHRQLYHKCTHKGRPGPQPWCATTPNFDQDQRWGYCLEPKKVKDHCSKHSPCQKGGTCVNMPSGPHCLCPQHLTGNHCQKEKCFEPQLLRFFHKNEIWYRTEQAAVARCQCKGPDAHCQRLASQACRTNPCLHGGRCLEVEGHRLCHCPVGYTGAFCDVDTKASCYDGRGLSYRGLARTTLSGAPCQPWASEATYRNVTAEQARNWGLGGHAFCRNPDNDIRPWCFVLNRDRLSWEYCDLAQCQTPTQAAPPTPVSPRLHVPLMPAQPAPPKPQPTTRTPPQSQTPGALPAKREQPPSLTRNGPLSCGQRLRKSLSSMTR
UniProt P00748, 373-615 limits assumed: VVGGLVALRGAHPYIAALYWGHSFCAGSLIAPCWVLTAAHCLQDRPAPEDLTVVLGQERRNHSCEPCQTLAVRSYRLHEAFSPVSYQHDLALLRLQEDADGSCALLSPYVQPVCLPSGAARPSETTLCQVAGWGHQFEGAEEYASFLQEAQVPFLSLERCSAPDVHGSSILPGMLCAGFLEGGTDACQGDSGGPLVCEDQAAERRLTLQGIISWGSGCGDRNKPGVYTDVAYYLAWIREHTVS

Each molecule was assayed against Coagulation factor XII (Homo sapiens) (UniProt P00748) (assay: human FXIIa protease inhibitors, primary screen, biochemical, single well (AID 701;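 note: 0% = enzyme with vehicle only and 100% = no enzyme blank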)). Conditions: purified human FXIIa, AMC substrate fluorescence, 2 h; at 10 µM; stronger effect = higher value.

Row | SMILES | inhibition
1 | CP(=O)(Nc1ccccn1)Oc1ccc(Cl)cc1 (stereo not given) | inactive: -1.94%
2 | COc1ccc(OP(C)(=O)Nc2cccc(F)c2)cc1 (stereo not given) | inactive: 7.63%
3 | Cc1cc(C)cc(OP(C)(=O)Nc2ccc(C)cc2C)c1 (stereo not given) | inactive: -7.56%
4 | Cc1cc(C)cc(OP(C)(=O)Nc2ccccn2)c1 (stereo not given) | inactive: 6.23%
5 | COc1ccccc1OP(C)(=O)Nc1c(C)cccc1C (stereo not given) | inactive: 2.42%
6 | CP(=O)(Nc1ccccc1)Oc1ccc(F)cc1 (stereo not given) | inactive: 9.51%
7 | CCN(CC)CCCOC(=O)C(O)(c1ccccc1)C1CCCCC1 (stereo not given) | inactive: 0.09%
8 | CN(C)CCOC(=O)C(O)(c1ccccc1)C1CCCC1 (stereo not given) | inactive: -1.33%
9 | COc1ccc(OP(C)(=O)Nc2ccccn2)cc1 (stereo not given) | inactive: -1.23%
10 | CCc1ccc(OP(C)(=O)O)cc1 | inactive: 4.32%
11 | COc1ccccc1OP(C)(=O)Nc1ccc(C)cc1C (stereo not given) | inactive: 5.74%
12 | Cc1c(NP(C)(=O)Oc2ccc(C(C)C)cc2)c(=O)n(-c2ccccc2)n1C (stereo not given) | inactive: 7.88%
13 | CP(=O)(OC12CC3CC(CC(C3)C1)C2)OC12CC3CC(CC(C3)C1)C2 | inactive: 2.56%
14 | CP(=O)(Nc1ccc(Cl)cc1)Oc1ccc(F)cc1 (stereo not given) | inactive: -10.4%
15 | CC(C)(C)c1ccc(OP(C)(=O)O)cc1 | inactive: -4.54%
